# Tested on: Kunming strain mice
# Experiment: Acute toxicity study, single IV or IP injection, 14 days observation
# Type: in vivo
# Description: The conjugate obtained from example 8 was used as the testing reagent in the following study, while native Cyclovirobuxine D was used as positive control. Both samples were dissolved in sodium acetate (pH 5.7) before injection.
# Kunming strain mice, 50% male and 50% formale, weighing 19-21 g, were randomly divided into 5 groups in the study. (1) native Cyclovirobuxine D, (2) the conjugate of PEG and Cyclovirobuxine D. The mice were fasted 12 hours before the injections. Each mice was given a single injection, and the volume for both IV and IP injection was based on 0.3 ml/10 g formulation. […] After 14 days, the mice still alive were executed and then analyzed.
substance,measurement,setting,value
α-methoxy-polyethylene-glycol-ω-glu-glu-gly-Cyclovirobuxine D ester [Example 8],LD50 in IP injection,single IP injection,144.98 mg/kg
same,LD50 in IV injection,single IV injection,35.50 mg/kg

# Source: patent publication US20070048252A1, “Conjugates of the hydrophilic polymer and the molecules from boxwood extraction, and pharmaceutical compositions of the conjugates” (Beijingn Jenkem Technology CO., Ltd., priority 2003, published 2007)
